These results are taken from patent US10137110B2, “1-cyclohexyl-2-phenylaminobenzimidazoles as mIDH1 inhibitors for the treatment of tumors” (Bayer Pharma Aktiengesellschaft, priority 2014, dated 2018).

Amino acid sequences for entries named in this document (tags omitted).
UniProt O75874, whole entry R132H: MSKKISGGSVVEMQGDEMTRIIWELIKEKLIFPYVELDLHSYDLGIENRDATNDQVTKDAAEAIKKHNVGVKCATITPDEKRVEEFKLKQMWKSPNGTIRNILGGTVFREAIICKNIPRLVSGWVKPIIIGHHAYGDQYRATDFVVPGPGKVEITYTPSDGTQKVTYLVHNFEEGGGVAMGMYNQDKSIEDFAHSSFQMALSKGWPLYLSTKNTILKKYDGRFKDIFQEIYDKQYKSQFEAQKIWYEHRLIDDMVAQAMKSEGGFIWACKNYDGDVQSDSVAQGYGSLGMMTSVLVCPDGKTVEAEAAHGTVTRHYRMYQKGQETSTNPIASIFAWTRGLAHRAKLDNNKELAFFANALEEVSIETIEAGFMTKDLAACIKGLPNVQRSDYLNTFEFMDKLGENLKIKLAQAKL

The target of the assay is IDH1 R132H enzyme (Homo sapiens (Human), UniProt O75874, R132H). Nature of the assay: Mutant IDH1 R132H biochemical assay. The following applies: NADPH consumption, luminescent readout; 1.5 nM enzyme, 250 μM α-KG, 1 μM NADPH, 30 minutes, 32° C.; test range 0.002-10 μM. How it is done:
Mutant IDH1 R132H Biochemical Assay
mIDH1 catalyzes the NADPH-dependent reduction of alpha-ketoglutarate (α-KG) to (2R)-2-hydroxyglutarate (2-HG). NADPH consumption was measured by luminescent readout.
The biochemical reactions were performed at 32° C. in 384-well plates using a reaction volume of 41 μl and the following assay buffer conditions: 50 mM Tris pH 7.5, 100 mM NaCl, 20 mM MgCl2, 0.05% BSA, 0.01% Brij, 1 μM NADPH, and 250 μM α-KG. The IDH1 R132H enzyme was used in a final concentration of 1.5 nM. Test compounds were used in a concentration range between 0.002 and 10 μM. The final DMSO concentration was 2.4%.
The reaction was incubated for 30 minutes, then 40 μl of detection mix (0.75 μg/ml Luciferase, 0.02 U/ml Oxidoreductase, 4 μg/ml FMN, 2 μl/ml Decanal/Ethanol, 50 mM Tris pH 7.5, 0.5% Glycerin, 0.01% Tween-20, 0.05% BSA) was added. Luminescence was measured on a luminescent reader (10 seconds measuring time, 1 second integration period, 30% sensitivity). The decrease in luminescence is proportional to mIDH1 activity. IC50 values are determined by interpolation from plots of relative luminescence versus inhibitor concentration.

pIC50: −log10 of the molar value.

Broadly, the pIC50 is the negative decadic logarithm of the IC50, by convention in mol/L. Turning to `Cc1nnc(-c2ccc3c(c2)nc(Nc2ccc(OC(F)(F)F)cc2)n3[C@H]2C[C@@H](C)CC(C)(C)C2)o1` (racemic) [Example 2-31, (±) 5-(5-methyl-1,3,4-oxadiazol-2-yl)-N-[4-(trifluoromethoxy)phenyl]-1-[(cis)-3,3,5-trimethylcyclohexyl]-1H-benzimidazol-2-amine], the pIC50 is 6.41.

`COc1c(F)cc(-c2ccc3c(c2)nc(Nc2ccc(OC(F)(F)F)cc2)n3[C@H]2C[C@@H](C)CC(C)(C)C2)cc1F` (racemic) [Example 2-32, (±) 5-(3,5-difluoro-4-methoxyphenyl)-N-[4-(trifluoromethoxy)phenyl]-1-[(cis)-3,3,5-trimethylcyclohexyl]-1H-benzimidazol-2-amine]: the pIC50 is ≤ 5.00.
